Experimental findings from patent US7708998B2, “Methods of inhibiting unwanted cell proliferation using hedgehog antagonists” (Curis, Inc., priority 2000, dated 2010) are described below.

The test system of the test is Shh signaling pathway in MEFs homozygous for ptc-lacZ. Put plainly: β-galactosidase activity in ptc-lacZ mouse embryonic fibroblasts. In kind it is cell-based. Conditions: MEFs homozygous for ptc-lacZ (cell line 23-1), normalized to whole protein content.

`CC1=C2C[C@H]3[C@@H](CC=C4C[C@@H](O)CC[C@@]43C)[C@@H]2CC[C@]12O[C@@H]1C[C@H](C)CN[C@H]1[C@H]2C` [cyclopamine]: the β-galactosidase activity entry is reported as “decreased”.
